One compound from ChEMBL document CHEMBL1129978, “Effect of structural modification of enol-carboxamide-type nonsteroidal antiinflammatory drugs on COX-2/COX-1 selectivity” (J Med Chem, 1997) can be followed below.

By UniProt entry, the sequences of proteins in these tests, tags left out.
UniProt P23219, whole entry: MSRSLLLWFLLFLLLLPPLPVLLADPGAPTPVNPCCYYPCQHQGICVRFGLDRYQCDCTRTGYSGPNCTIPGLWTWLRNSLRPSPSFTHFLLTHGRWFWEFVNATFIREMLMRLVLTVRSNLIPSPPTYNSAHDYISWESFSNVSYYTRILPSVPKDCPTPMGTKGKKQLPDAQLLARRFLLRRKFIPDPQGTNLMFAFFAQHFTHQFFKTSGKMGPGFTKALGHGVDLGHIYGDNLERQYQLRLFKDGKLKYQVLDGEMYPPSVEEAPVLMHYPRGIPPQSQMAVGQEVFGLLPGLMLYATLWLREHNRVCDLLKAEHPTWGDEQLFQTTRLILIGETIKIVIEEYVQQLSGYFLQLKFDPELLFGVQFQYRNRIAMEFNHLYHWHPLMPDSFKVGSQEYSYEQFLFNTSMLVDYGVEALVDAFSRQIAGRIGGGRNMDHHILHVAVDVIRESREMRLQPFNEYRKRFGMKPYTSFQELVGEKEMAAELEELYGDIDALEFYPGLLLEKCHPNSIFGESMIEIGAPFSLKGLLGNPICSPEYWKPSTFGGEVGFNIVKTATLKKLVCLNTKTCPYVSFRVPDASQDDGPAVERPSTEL

pIC50: −log10 of the molar value.

The experiment deals with Prostaglandin G/H synthase 1 (Homo sapiens, UniProt P23219). The experiment in a line: Concentration of drug that causes a 50% decrease in the maximal inhibition of Prostaglandin G/H synthase 1 activity as measured by PGE-2 production (''++'' indicates 80-90% inhibition).

As for `CN1C(C(=O)Nc2ccccn2)=C(O)c2ccccc2S1(=O)=O` [PIROXICAM], the pIC50 is 5.89.
